The values below are quoted from earlier work in article PMC8611036, “An integrated method for optimized identification of effective natural inhibitors against SARS-CoV-2 3CLpro” (Scientific Reports, 2021).

For this series the following is noted: ref TCMSP database; cited from earlier work.

On to cyanidol [MOL000002], for which the Caco-2 is 0.17.
